Test results as given in US12295963B2, “Treating pain associated with diabetic peripheral neuropathy” (MEDICON PHARMACEUTICALS, INC., priority 2021, dated 2025).

How the values were obtained:
[1] = Pharmacokinetics and biodistribution of PS and its metabolites after topical administration to hind paws
Method: PS 8% ointment was applied topically to each hind paw (50 μl per paw) with gentle rubbing. At 0.5, 1, 3, 5, 12, 18, and 24 h, mice (n=4-5 mice/time point) were euthanized with CO2 inhalation. Blood was drawn immediately after death. Tissues, including paw skin, paw muscle, leg muscle, the sciatic nerve and lumbar DRG bilaterally were dissected quickly, immediately frozen in liquid nitrogen and stored at −80° C. until analyzed.
Following addition of acetonitrile (twice the volume of the homogenate), the mixture was sonicated for 10 min, centrifuged at 13,200 rpm for 15 min, and analyzed by HPLC, as reported (Wen et al., 2019).
Since the metabolism and PK/biodistribution of PS vary depending on its route of administration, we studied both in normal mice in which PS was administered topically to their hind paws, with particular attention to the sciatic nerve and the dorsal root ganglia (DRG) that are affected in DPN.

[2] = system: mechanical allodynia in STZ-induced DPN rats; experiment: Treatment of neuropathic pain in STZ-induced rat model of DPN, paw withdrawal threshold (von Frey filaments); assay type: in vivo, Sprague-Dawley rats; details: treatment protocol from week 4, sulindac 0.7% hydrogel topical 3 times a day for 1 week (PWT week 5), lidocaine 5% cream once 30 min before PWT, pregabalin 10 mg/kg oral once 1 h before PWT
Method: DPN was induced via chemically-induced increases in blood glucose in rats, using streptozotocin (STZ). This is a well-established model for DPN (see Morrow, Current Protocols in Neuroscience (2004); 29(1): 1-11), in which the STZ, an antibiotic extract from Streptomyces acromogenes, selectively damages the β cells of the pancreas.
Sprague-Dawley rats were fasted for 4-6 hours before being injected intraperitoneally with 45 mg/kg STZ. This was performed for all experimental groups, except the naïve group. In order to prevent hypoglycaemic death, rats received 10% sucrose water as the sole water source for the first 48 hours after injection. In order to ensure only those rats considered diabetic (i.e., having non-fasting plasma glucose levels of >250 mg/dL) were included in the study, blood glucose was measured at 72 hours after the STZ injection.
This delay between STZ injection and treatment allows the establishment of chronic pain (allodynia) associated with peripheral and central sensitisation. PS (as an 8% hydrogel) or vehicle control were administered topically to both hind paws of the rats 3 times a day for 3 weeks starting at week 4 after STZ injection. […]
In order to determine the outcome of the treatment, mechanical allodynia was measured using the well-established method of von Frey filaments. […] The results of the PWT test are expressed as force applied (gm). […]

| Structure (SMILES) | detection as metabolite of PS ([1]; mouse tissues and blood after PS 8% ointment topical, HPLC, limit of quantitation 0.05 μM) | sulindac levels relative to those of PS ([1]; mouse, in vivo) | sulindac levels relative to those of PS ([1]; sciatic nerve, compared with around 25% in the other tissues, result in words) | PWT, gm Mean ± SEM [2] [gm] |
| --- | --- | --- | --- | --- |
| CC1=C(CC(=O)O)c2cc(F)ccc2/C1=C\c1ccc([S+](C)[O-])cc1 (stereo not shown) [sulindac] | detected | equal | higher | – |
| CC(C)C[C@H](CN)CC(=O)O [pregabalin] | – | – | – | 27.3 ± 1.7 |
